Target: DP-IV (Homo sapiens, UniProt P27487)
Assay: DP-IV activity colorimetric assay (Gly-Pro-4-NA hydrolysis, 405 nm) in human plasma
Conditions: Concentration for 50% inhibition of DPIV, isolated flavonol-glycosides tested at 100-500 μg/ml; estimated

Protein sequences, listed by entry. Tags and fused reporters are not part of them. Residues count along the entry.
UniProt P27487, 39-766 limits assumed: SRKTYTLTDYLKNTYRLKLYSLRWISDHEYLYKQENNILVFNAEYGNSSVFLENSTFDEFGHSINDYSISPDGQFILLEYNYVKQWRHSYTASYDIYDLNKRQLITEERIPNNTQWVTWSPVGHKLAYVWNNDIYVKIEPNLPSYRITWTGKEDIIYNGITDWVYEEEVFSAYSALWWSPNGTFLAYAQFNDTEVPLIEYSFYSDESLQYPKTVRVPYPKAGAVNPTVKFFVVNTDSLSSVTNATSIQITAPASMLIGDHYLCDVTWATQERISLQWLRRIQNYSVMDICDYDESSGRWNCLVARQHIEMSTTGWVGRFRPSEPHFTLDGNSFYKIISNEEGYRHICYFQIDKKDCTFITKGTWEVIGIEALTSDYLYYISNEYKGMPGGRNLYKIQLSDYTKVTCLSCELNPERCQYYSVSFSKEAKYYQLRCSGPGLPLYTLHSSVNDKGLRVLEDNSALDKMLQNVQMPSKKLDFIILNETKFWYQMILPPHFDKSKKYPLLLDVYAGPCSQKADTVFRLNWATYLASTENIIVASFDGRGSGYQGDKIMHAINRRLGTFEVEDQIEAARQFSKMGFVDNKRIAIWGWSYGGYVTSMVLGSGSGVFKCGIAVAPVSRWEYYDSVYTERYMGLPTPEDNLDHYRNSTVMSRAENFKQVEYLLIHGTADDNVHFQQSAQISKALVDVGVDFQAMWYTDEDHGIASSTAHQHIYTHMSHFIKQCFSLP

O=c1c(O[C@@H]2O[C@H](CO)[C@@H](O)[C@H](O)[C@H]2O)c(-c2ccc(O)c(O)c2)oc2cc(O)cc(O)c12 [compound 4]
IC50: 900 µM
